# Earlier results, collected in article PMC5557574, “Selepressin, a novel selective vasopressin V1A agonist, is an effective substitute for norepinephrine in a phase IIa randomized, placebo-controlled trial in septic shock patients” (Critical Care, 2017).
# Details: cited from earlier work
substance,measurement,value
vasopressin,Half-life (qualitative),short half-life
